The entries are a selection whose mix differs from that of the whole data set. Some tests of the compounds listed are not included; inactive here does not mean inactive elsewhere. The source made the active and inactive calls. Cut-off read from the data, not from the text of the source: active = activity above about 50% (passing the limit was not always enough); inconclusive = no clear call, values can overlap the other calls.
The compounds below were run on DNA topoisomerase I (Yersinia pestis CO92) (assay: Yersinia pestis topoisomerase I inhibitors, primary screen, biochemical, cleavage product accumulation, plate reader, single point (AID 504884)). Settings: Y. pestis Topo-I cleavage product accumulation, at 10 µM, hits give high values.

| Compound | activity |
| --- | --- |
| O=C(NCC1(N2CCCCC2)CCCCC1)c1cccc(Cl)c1 | inactive: 6.76% |
| COc1ccc(Cl)cc1C(=O)NCC1(N(C)C)CCCCC1 | inactive: 3.32% |
| COc1cccc(C(=O)NCC2(N3CCCCC3)CCCCC2)c1 | inactive: -6.3% |
| COc1cc(C(=O)NCC2(N(C)C)CCCCC2)c([N+](=O)[O-])cc1OC | inactive: -0.379% |
| CN(C)C1(CNC(=O)c2ccc(Br)cc2)CCCCC1 | inactive: -9.69% |
| CN(C)c1cccc(C(=O)NCC2(N(C)C)CCCCC2)c1 | inactive: -1.78% |
| O=C(OCCN1CCCC1)C(O)(c1ccccc1)c1ccccc1 | inactive: 6.18% |
| CC(C)Oc1ccc(C(=O)NCC2(N(C)C)CCCCC2)cc1 | inactive: 5.28% |
| COc1ccc(Br)c(C(=O)NCC2(N3CCCCC3)CCCCC2)c1 | inactive: -7.1% |
| C=C(C)C#CC(O)(C(=O)OC1CCN(C)CC1)c1ccccc1 (stereo unspecified) | inactive: 3.48% |
| O=C(OC1CN2CCC1CC2)C(CO)(c1ccccc1)c1ccccc1 (stereo unspecified) | inactive: 3.88% |
| Cc1ccc(C(=O)NCC2(N3CCCCC3)CCCCC2)cc1 | inactive: 10.1% |
| CC(C)N1C(=O)CC2(CCN(CCOC(=O)C(O)(c3ccccc3)c3ccccc3)CC2)C1=O | inactive: 12.2% |
| COc1cc(SC)ccc1C(=O)NCC1(N(C)C)CCCCC1 | inactive: 4.74% |
| CCN(CC)CC(C)C(C)OC(=O)C(O)(c1ccccc1)c1ccccc1 (stereo unspecified) | inactive: -0.552% |
| CN1[C@@H]2CC[C@H]1CC(OC(=O)C(O)(c1ccccc1)c1ccccc1)C2 (stereo partly specified) | inactive: -0.87% |
| O=C(NCC1(N2CCCCC2)CCCCC1)c1cc([N+](=O)[O-])ccc1Cl | inactive: -2.21% |
| O=C(NCC1(N2CCCCC2)CCCCC1)c1cccc(Br)c1 | inactive: 3.91% |
| CCN1CCCC(OC(=O)C2(O)c3ccccc3C=Cc3ccccc32)C1 (stereo unspecified) | inactive: -10.7% |
| Cc1cc(C(=O)NCC2(N3CCCCC3)CCCCC2)ccc1[N+](=O)[O-] | inactive: -3% |
| COc1ccc(C(=O)NCC2(N(C)C)CCCCC2)cc1 | inactive: 2.29% |
| O=C(NCC1(N2CCCCC2)CCCCC1)c1cc(F)c(F)cc1Cl | inactive: -3.94% |
| C=CCN1CCN(CCOC(=O)C(O)(c2ccccc2)c2ccccc2)CC1 | inactive: -13.4% |
| CN(C)c1ccc(C(=O)NCC2(N(C)C)CCCCC2)cc1 | inactive: 0.421% |
| CN(C)C1CCCC1OC(=O)C(O)(c1ccccc1)c1ccccc1 (stereo unspecified) | inactive: -5.75% |
| Cc1ccccc1C(=O)NCC1(N2CCCCC2)CCCCC1 | inactive: -10.4% |

Reference: PubChem BioAssay AID504884 (Broad Institute, 2011)
